Reference: PubChem BioAssay (Tox21)
Several values for one entry are separate records, joined by “and”; a condition that tells them apart may be missing. Equal entries are not always repeated. Only a part is listed here, and it is no random draw. Inconclusive results are not listed. Activity calls are given as the source filed them. Calls come from the whole dose curve; as a rule, active = well fitted cell-killing curve with a large enough effect in the repeat runs; inconclusive = weak or mixed curves; inactive = flat fitted curve, though single readings scatter.

Test: qHTS assay to identify small molecule antagonists of the TGF-beta/Smad signaling pathway - cell viability counter screen (AID 1346824); note: nearly all actives have a fitted effect of over 50% in size
Details: SBE-bla HEK293T viability, CellTiter-Glo luminescence; at 35.3 µM (top of the series)
Description: U.S. Tox21 Program National Center for Advancing Translational Sciences [NCATS] NIH Chemical Genomics Center [NCGC] U.S. Environmental Protection Agency [EPA] National Institutes of Environmental Health Sciences [NIEHS] National Toxicology Program [NTP] U.S. Food and Drug Administration [FDA] Tox21 Assay Overview: Transforming growth factor beta (TGF-beta) superfamily consists of a large number of structurally related dimeric proteins that act as hormones or local mediators in regulating a wide range of biological functions. This superfamily includes TGF-betas themselves, the bone morphogenetic proteins (BMPs) and the activins. These ligands induce oligomerization of serine/threonine receptor kinases and phosphorylate the cytoplasmic signaling molecules of Smad protein family. CellSensor SBE-bla HEK 293T cell line (Life Technologies, Carlsbad, CA), responsive to TGF-beta was used to screen Tox21 10K compound library for identification of agonists/antagonists of the Smad signaling pathway. This cell line contains a beta-lactamase reporter gene under control of the Smad binding element (SBE) stably integrated into HEK 293T cells. Also cytotoxicity of the compounds was tested in parallel by measuring the cell viability using CellTiter-Glo assay system in the same wells.
Tox21 Assay Protocol Summary: SBE-bla HEK 293T cells were dispensed at 4,000/well in 5 uL of assay medium into black wall/clear-bottom 1536-well plates using a Multidrop Combi (ThermoFisher Scientific, Waltham, MA) dispenser. After the assay plates were incubated at 37 C and 5% CO2 for an overnight, 23 nL of compounds dissolved in DMSO, positive controls or DMSO only was transferred to the assay plate by a Pintool station (Kalypsys, San Diego, CA). Compound transfer was followed by the addition of 1 uL of 0.25 ng/mL TGF-beta1 or assay buffer using two separate tips of Flying Reagent Dispenser (FRD, Aurora Discovery, San Diego, CA). The assay plates were incubated at 37 C and 5% CO2 for 5 hr. One uL of LiveBLAzer B/G FRET substrate (Life Technologies) was added using a Flying Reagent Dispenser (FRD, Aurora Discovery, San Diego, CA) and the plates were incubated at room temperature for 2 hr. Fluorescence intensity (405 nm excitation, 460 nm and 530 nm emissions) was measured using an Envision plate reader (PerkinElmer, Shelton, CT). For cytotoxicity read, 4 uL of CellTiter-Glo reagent (Promega Corporation, Madison, WI) was added to each well of the assay plates using FRD. After 30 min incubation at room temperature, the luminescence intensity was measured using ViewLux plate reader (PerkinElmer).
% is set by controls: 0 for no effect and ±100 for the full control effect.

Compound | viability change, negative = cytotoxic
OCCSCCO | inactive: 0.114%

Same assay, conditions: SBE-bla HEK293T viability, CellTiter-Glo luminescence; at 76.8 µM (top of the series)

Compound | viability change, negative = cytotoxic
OCCSCCO | inactive: 4.25%

Same assay, conditions: SBE-bla HEK293T viability, CellTiter-Glo luminescence; at 76.8 µM (top of the series) unless noted

Compound | viability change, negative = cytotoxic
O=[N+]([O-])c1cccc([N+](=O)[O-])c1 | inactive: 15.1%
CCOP(=O)(CC)OCC | inactive: -1.98%
CCN(CC)CCCl | inactive: 4.76%
CP(=O)(O)OCCC[Si](O)(O)O | inactive: -6.6%
O=[N+]([O-])[O-].[NH4+] | inactive: -5.12% and inactive: 11.3%
O=[N+]([O-])OCC(CO[N+](=O)[O-])(CO[N+](=O)[O-])CO[N+](=O)[O-] | inactive: -0.454%
[NH4+].[O-][Cl+3]([O-])([O-])[O-] | inactive: -0.748% and inactive: 6.65%
CCOP(=O)(CC)Oc1ccc([N+](=O)[O-])cc1 (configuration not stated) | inactive: -24.6% [at 35.3 µM]
Cc1c([N+](=O)[O-])cccc1[N+](=O)[O-] | inactive: -3.49% and inactive: 11.9%
C/C1=C2N=C(/C=C3N=C(/C(C)=C4\[N-][C@@](C)([C@@H]5N=C1[C@](C)(CCC(=O)NC[C@@H](C)OP(=O)([O-])O[C@H]1[C@@H](O)[C@@H](n6cnc7cc(C)c(C)cc76)O[C@@H]1CO)[C@H]5CC(N)=O)[C@@](C)(CC(N)=O)[C@@H]4CCC(N)=O)[C@@](C)(CC(N)=O)[C@@H]\3CCC(N)=O)C(C)(C)[C@@H]/2CCC(N)=O.[C-]#N.[Co+3] | inactive: 22% [at 35.3 µM]
COc1ccc([N+](=O)[O-])cc1[N+](=O)[O-] | inactive: 0.907%
Cc1ccc([N+](=O)[O-])cc1[N+](=O)[O-] | inactive: -28.8% and inactive: 15.3%
CC(C)OP(C)(=O)OC(C)C | inactive: -1.54% and inactive: -3.82%
COP(C)(=O)OC | inactive: -0.124% and inactive: 8.28%
N=C(N)N[N+](=O)[O-] | inactive: 2.46%
Nc1cc([N+](=O)[O-])cc([N+](=O)[O-])c1O | inactive: -17.6%
Cc1ccc([N+](=O)[O-])c([N+](=O)[O-])c1 | inactive: 3.92% and inactive: 8.06%
N#CBr | inactive: -0.843%
CC(C)N(CCO)C(C)C | inactive: -1.87%
CN(C)CCCl | inactive: 3.68%
